The list shows a part of the results, in another mix than the full data. Calls of active or inactive are those of the source.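 How the source made its calls: active means activation above a cutoff set at the mean of all screened compounds plus 3 SD (cut at about 10% in these data); inactive means the rest.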

The results in this text go back to PubChem BioAssay AID687014 (The Scripps Research Institute Molecular Screening Center, 2013).

For the assay, the system named is Nuclear hormone receptor DAF-12 (Heterodera glycines), GAL4 fusion. Briefly: H. glycines DAF-12 receptor agonists, primary screen, cell-based, luminescence, HEK293, GAL4 fusion, UAS-luciferase (AID 687014).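 Further: 0% = DMSO wells and 100% = sodium butyrate wells.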 The following applies: HEK293 GAL4-hgDAF12 UAS-luciferase reporter, agonist luminescence; at 6.8 µM; active compounds read high; normalized to butyrate control.
Turning to `COc1ccc(N/C(=N/P(=O)(N2CCOCC2)N2CCOCC2)N2CCOCC2)cc1`, the activation is inactive: 0.65%. Next, `Cc1c2c(nc3ccccc13)SC(C(Cl)Cl)C2` (centres undefined): inactive: -1.85%; `O=C(OC1CN2CCC1CC2)C12CC3CC(CC(C3)C1)C2` (centres undefined): inactive: -0.05%; `Cc1cc(=O)[nH]c(N[N+](=O)[O-])n1`: inactive: 0.67%. Next, `O=P1(N(CCCl)CCCl)Nc2ccccc2N1`: active: 16.1%. For the compound `O=P1(N(CCCl)CCCl)OCCCN1CCCl` (centres undefined), the activation is inactive: 0.21%. As to `COc1ccc2nc(NP(=O)(c3ccccc3)c3ccccc3)sc2c1`, the activation was inactive: 2.63%. Next, `COc1cc(I)ccc1[As](=O)(O)O`: inactive: -0.11%; `O=C(OC1CN2CCC1CC2)c1cccc([N+](=O)[O-])c1` (centres undefined): inactive: 1.1%.

For `CCOC(=O)c1ccc(NC(=O)C(C)(CCl)SC)cc1` (centres undefined), the activation was inactive: 1.02%. Next, `CCC(C)N(CC(C)C)C(=S)SC(NC(C)=O)C(Cl)(Cl)Cl` (centres undefined): inactive: 1.85%.

On to `COP1(=S)c2c(C)nn(CCC#N)c2N=C(c2ccc(F)cc2)N1C` (centres undefined), for which the activation is inactive: -1.72%.

Turning to `COC(=O)C1(C)COP(=O)(N2CCCC2)OC1` (centres undefined), the activation was inactive: 1.63%. In the case of `O=C(O)C(=O)c1ccc(N(CCCl)CCCl)cc1`, the activation was inactive: 0.2%. Then `O=C(COc1ccccc1)OC1CN2CCC1CC2` (centres undefined), with inactive: 3.37%; and `O=C(Nc1ccncc1[N+](=O)[O-])c1ccc([N+](=O)[O-])cc1[N+](=O)[O-]`, with inactive: 0.62%. Then `CCOC(=O)Nc1cccc([As](=O)(O)O)c1`, with inactive: 2.61%; and `Cc1cc(SC(NC=O)C(Cl)(Cl)Cl)ncn1` (centres undefined), with inactive: -1.1%; and `O=P(Nc1ccccn1)(c1cccc2ccccc12)c1cccc2ccccc12`, with inactive: -0.03%. Then `O=[N+]([O-])c1ccc(Nc2ccc(Oc3ccc([N+](=O)[O-])cc3[N+](=O)[O-])cc2)c([N+](=O)[O-])c1`, with inactive: 0.44%. Turning to `O=C(O)C(O)c1ccc(N(CCCl)CCCl)cc1` (centres undefined), the activation is inactive: -1.45%. Then `CCOC(=O)Nc1ccc([As](=O)(O)O)c(O)c1`, with inactive: -0.08%. Then `CC1CCNP(=O)(N(CCCl)CCCl)O1` (centres undefined), with inactive: 1.87%. Then `COP(=O)(OC)N1CC1c1ccccc1` (centres undefined), with inactive: -2.11%; and `CCCCOc1ccc(C(=O)NCC2(N3CCCCC3)CCCCC2)cc1OC`, with inactive: 3.95%; and `Cc1cc(SC(NC(=O)c2ccccc2)C(Cl)(Cl)Cl)nc(C(C)C)n1` (centres undefined), with inactive: -1.55%.

On to `Cc1ccc(S(=O)(=O)N(CCCN)CCCc2c(C)nc(N)[nH]c2=O)cc1`, for which the activation is inactive: 0.14%. Then `O=P1(Nc2ncccn2)COc2ccccc2OC1`, with inactive: -1.78%; and `Nc1cccc([As](=O)(O)c2ccccc2)c1`, with inactive: -2.46%; and `NS(=O)(=O)c1cccc(NC(=O)COC(=O)C(O)(c2ccccc2)c2ccccc2)c1`, with inactive: 1.97%. Then `O=P1(Nc2ccc(Br)cn2)COc2ccccc2OC1`, with inactive: 0.21%; and `Cc1ccc(OCC(=O)OC2CN3CCC2CC3)cc1` (centres undefined), with inactive: 0.36%; and `O=[As](O)(c1cccs1)c1cccs1`, with inactive: -2.21%. Next, `Cc1nn(-c2ccccc2)c2c1P(=O)(N1CCOCC1)N(C)C(c1ccccc1)=N2` (centres undefined): inactive: 2.48%.

`Cc1ccc(C(=O)OC2CN3CCC2CC3)cc1` (centres undefined): the activation was inactive: 4.26%.

As to `CC1CCC(C(C)C)C(OP(=O)(Nc2ccccn2)c2ccccc2)C1` (centres undefined), the activation was inactive: 0.98%. Next, `CN(C)C1(CNC(=O)c2ccc(S(C)(=O)=O)cc2)CCCCC1`: inactive: -2.25%; `O=C(/C=C/c1ccccc1)OC1CN2CCC1CC2` (centres undefined): inactive: 1.04%.

On to `CCCC1OP(=O)(Nc2ccccc2)OCC1CC` (centres undefined), for which the activation was inactive: 2.08%.

As for `COc1ccccc1CNC(=O)COC(=O)C(O)(c1ccccc1)c1ccccc1`, the activation is inactive: -1.15%. Next, `CN(C(=O)Cc1ccc(Cl)c(Cl)c1)[C@@H]1CCCC[C@H]1N1CCCC1`: inactive: -0.44%. Then `CC(C)/C=N\N=C(\N)N[N+](=O)[O-]`, with inactive: 0.4%; and `CN(C(=O)Cc1ccc(Cl)c(Cl)c1)C1CCCC[C@@H]1N1CCCC1` (some centres undefined), with inactive: 0.61%; and `CC1(CBr)Cn2c(nc3ccccc3c2=O)S1` (centres undefined), with inactive: -1.1%. Next, `CCC1=CC2Cc3nc4ccc(Cl)cc4c(N)c3C(C1)C2` (centres undefined): inactive: 4.16%. As for `O=P1(Nc2ccccn2)COc2ccccc2OC1`, the activation was inactive: -2.81%. Then `CCOP(=O)(NC(=NC(C)c1ccccc1)NC(C)c1ccccc1)OCC` (centres undefined), with inactive: -0.12%; and `CN(CCCl)Cc1cc(Cl)c(NC2=NCCN2)c(Cl)c1`, with inactive: 0.55%.

On to `CCOP(=O)(Nc1ccc(C)cn1)OCC`, for which the activation is inactive: -0.19%. Next, `Clc1n[nH]nc1-c1nn[nH][15n]1`: inactive: 0.98%. Then `O=P1(N(CCCl)CCCl)NCCC(C(F)(F)F)O1` (centres undefined), with inactive: 1.75%; and `CC(C)(C)C(=O)NC(Sc1ncccn1)C(Cl)(Cl)Cl` (centres undefined), with inactive: -2.13%; and `Cc1ccc(NCCc2c([N+](=O)[O-])cc([N+](=O)[O-])cc2[N+](=O)[O-])cc1`, with inactive: 4.67%. Next, `Nc1cccc2c([As](=O)(O)O)cccc12`: inactive: -1.96%; `CCCOP(=S)(Nc1nc(N)cc(=O)[nH]1)OCCC`: inactive: -0.31%. Take `COc1cc(C2NCCC3(OCCO3)C2(C)C)cc(OC)c1OC` (centres undefined): the activation is inactive: 1.69%. Then `CCOP(=O)(Nc1cccc2ccccc12)OCC`, with inactive: 1.27%. Next, `O=C(OC1CN2CCC1CC2)c1ccc(Cl)cc1` (centres undefined): inactive: -0.44%.

Take `COc1cc(C(=O)NCC2(N3CCOCC3)CCCCC2)cc(Cl)c1OC(C)C`: the activation was inactive: -0.61%. Then `O=[As](O)(O)c1cccnc1`, with inactive: 0.63%.

Consider `CS(=O)(=O)c1ccc(Cl)c(NC(=O)COC(=O)C(O)(c2ccccc2)c2ccccc2)c1`, for which the activation was inactive: -0.04%. Next, `O=[As](O)(c1cccc(O)c1)c1cccc(O)c1`: inactive: -1.42%. On to `Cc1cccc(OCC(=O)OC2CN3CCC2CC3)c1` (centres undefined), for which the activation was inactive: -2.05%. Then `NC(=O)Nc1ccc([As](=O)(O)O)cc1`, with inactive: 0.76%. Then `N#CCCN(C(=O)COC(=O)C(O)(c1ccccc1)c1ccccc1)c1ccc(F)cc1`, with inactive: 3.71%; and `CCOP1(=S)c2c(C)nn(CCC#N)c2N=C(c2ccc(F)cc2)N1C` (centres undefined), with inactive: -0.92%.

Turning to `CN(C(=O)Cc1ccccc1)[C@@H]1CC[C@]2(CCCO2)C[C@H]1N1CCCC1`, the activation was inactive: 1.47%.

Turning to `CN(C)C(=O)c1cc([N+](=O)[O-])cc2c1-c1c(cc([N+](=O)[O-])cc1[N+](=O)[O-])C2=O`, the activation was inactive: -2.03%. Consider `O=[N+]([O-])c1ccc2c(c1)nnn2O`, for which the activation is inactive: -0.47%.

Regarding `CN(C(=O)Cc1ccc(Cl)c(Cl)c1)[C@H]1CC[C@@]2(CCCO2)C[C@@H]1N1CCCC1`, the activation was inactive: 3.89%. `CCOP1(=S)c2c(C)nn(CCC#N)c2N=C(c2ccccc2F)N1C` (centres undefined): the activation was inactive: -0.03%. For the compound `O=P(Nc1nccs1)(Oc1ccccc1)Oc1ccccc1`, the activation was inactive: 0.1%.

As to `O=C(O)COc1ccc([As](=O)(O)O)cc1[N+](=O)[O-]`, the activation is inactive: -1.82%. For the compound `Nc1ccccc1[As](=O)(O)c1ccccc1`, the activation is inactive: 1.97%.
